59 molecules from PubChem BioAssay AID463104 (Sanford-Burnham Center for Chemical Genomics, 2010) can be followed below.

Molecules are shown by their SMILES. Only a part is listed here, and it is no random draw. Some salts or complexes appear as unconnected parts, following the source record. The source made the active and inactive calls.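 How the source made its calls: active means versus positive control, 20 µM dose yields 30% or more activation; inactive means the rest.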

A short description of this experiment: activators of adaptive XBP1 UPR arm, primary screen, cell-based, CHO-XBP1 luciferase reporter, luminescence, uHTS (AID 463104).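 Further: 100% = tunicamycin at 10 µg/mL and 0% = DMSO only wells.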 As to conditions: IRE1-XBP1 UPR activation, at 20 µM, active compounds read high, percent of tunicamycin response, DMSO as zero. The procedure, abridged:
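Material: IRE1-XBP1 luciferase reporter CHO line / Quantity: one thousand reporter cells per well / Buffer or medium: F12 with 10% serum / Compound: 20 µM single concentration, DMSO 1% / Times: 6 h treatment, 37 °C / Detection: Steady-Glo luciferase glow luminescence, 10 min after reagent addition / Benchmarks: tunicamycin high, DMSO low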
On to `CP(=O)(OCCOc1ccccc1)OCCOc1ccccc1`, for which the activation was inactive: -0.42%.

As for `CP(=O)(Nc1ccc(Cl)cc1Cl)Oc1ccccc1` (centres undefined), the activation is inactive: -0.03%.

Turning to `Cc1nc2ccc3ccccc3c2o1.O=[N+]([O-])c1cc([N+](=O)[O-])c(O)c([N+](=O)[O-])c1`, the activation was inactive: 1.96%.

Take `COc1ccccc1OP(C)(=O)Nc1ccc(C)c(C)c1` (centres undefined): the activation is inactive: -3.1%.

`COc1ccc(OP(C)(=O)Nc2ccccc2Br)cc1` (centres undefined): the activation is inactive: -1.96%.

On to `Cc1cc(C)cc(OP(C)(=O)Nc2cccc(C(F)(F)F)c2)c1` (centres undefined), for which the activation was inactive: -1.6%.

On to `CP(=O)(Nc1ccccn1)Oc1ccccc1` (centres undefined), for which the activation was inactive: 1.74%.

Consider `COc1ccccc1OP(C)(=O)Nc1ccc(C)cc1C` (centres undefined), for which the activation is inactive: 0.51%.

Take `CCc1ccc(OP(C)(=O)O)cc1`: the activation was inactive: 5.38%.

On to `O=[N+]([O-])c1cc([N+](=O)[O-])c(Nc2ccccn2)c([N+](=O)[O-])c1`, for which the activation was inactive: -3.36%.

Turning to `Cc1c(NP(C)(=O)Oc2ccc(C(C)C)cc2)c(=O)n(-c2ccccc2)n1C` (centres undefined), the activation is inactive: -0.28%.

For the molecule `COc1ccc(OP(C)(=O)Nc2ccccn2)cc1` (centres undefined), the activation is inactive: -2.05%.

For the molecule `CN(C)CCOC(=O)C(O)(c1ccccc1)C1CCCC1` (centres undefined), the activation was inactive: -0.38%.

As for `COc1ccccc1OP(C)(=O)Nc1ccc(Br)cc1` (centres undefined), the activation was inactive: -1.92%.

In the case of `CN(C)C(=O)c1c([N+](=O)[O-])cc([N+](=O)[O-])cc1[N+](=O)[O-]`, the activation was inactive: -1.89%.

`CC(C)(C)c1ccc(OP(C)(=O)O)cc1`: the activation is inactive: -1.25%.

For the molecule `COc1ccccc1OP(C)(=O)Nc1ccccc1Br` (centres undefined), the activation was inactive: -3.39%.

As for `CP(=O)(Nc1ccc(Cl)cc1)Oc1ccc(F)cc1` (centres undefined), the activation was inactive: -6.86%.

Turning to `COc1ccccc1OP(C)(=O)Nc1c(C)n(C)n(-c2ccccc2)c1=O` (centres undefined), the activation was inactive: -3.08%.

Regarding `O=C(OCCCN1CCCC1)C(O)(c1ccccc1)C1CCCCC1` (centres undefined), the activation was inactive: 1.49%.

`CP(=O)(Oc1ccccc1)N1CCOC1=O` (centres undefined): the activation was inactive: 0.51%.

With `CCc1ccc(OP(C)(=O)Nc2cccnc2)cc1` (centres undefined), the activation is inactive: 0.24%.

As to `CCN(CC)CC(O)COC(=O)C(O)(c1ccccc1)C1CCCCC1` (centres undefined), the activation was inactive: -0.13%.

As to `COc1ccc(OP(C)(=O)Nc2ccc(Br)cc2)cc1` (centres undefined), the activation was inactive: -3.45%.

Consider `CCOC(=O)c1ccc(NP(C)(=O)Oc2ccc(Cl)cc2)cc1` (centres undefined), for which the activation is inactive: -2.45%.

Turning to `CP(=O)(OC12CC3CC(CC(C3)C1)C2)OC12CC3CC(CC(C3)C1)C2`, the activation is inactive: 1.21%.

Consider `Nc1ccc2c(ccc3cccnc32)n1.O=[N+]([O-])c1cc([N+](=O)[O-])c(O)c([N+](=O)[O-])c1`, for which the activation is inactive: 0.58%.

In the case of `O=[N+]([O-])c1cc([N+](=O)[O-])c(NCC2CCS(=O)(=O)C2)c([N+](=O)[O-])c1` (centres undefined), the activation was inactive: -2.27%.

For the molecule `CN(C)CCOC(=O)C(O)(c1ccccc1)C1CCCCC1` (centres undefined), the activation was inactive: -0.44%.

Consider `COc1ccc(NP(C)(=O)Oc2ccccc2OC)cc1` (centres undefined), for which the activation was inactive: -4.62%.

In the case of `COc1ccc(OP(C)(=O)Nc2cccc(Br)c2)cc1` (centres undefined), the activation was inactive: -2.32%.

As for `Cc1ccccc1NP(C)(=O)Nc1ccccc1C`, the activation was inactive: -2.03%.

In the case of `CP(=O)(Nc1ccc2c(c1)OCCO2)Oc1ccccc1` (centres undefined), the activation was inactive: -3.45%.

With `CCOP(C)(=S)SCC(=O)NC(C)(CC)C(=O)O` (centres undefined), the activation was inactive: -2.24%.

For `CP(=O)(Nc1ccc(SC(F)(F)F)cc1)Oc1ccc(F)cc1` (centres undefined), the activation was inactive: -0.77%.

As to `COc1ccc2c(c1O)-c1c(O)c(OC)cc3c1[C@H](C2)[N+](C)(C)CC3.O=[N+]([O-])c1cc([N+](=O)[O-])c([O-])c([N+](=O)[O-])c1[O-]`, the activation is inactive: 0.09%.

Regarding `O=C(OC1CN2CCC1CC2)c1ccc([N+](=O)[O-])cc1` (centres undefined), the activation is inactive: -2.56%.

As to `O=C(OCCN1CCN(CCOCc2ccccc2)CC1)C(O)(c1ccccc1)c1ccccc1`, the activation was inactive: 1.32%.

For the molecule `CP(=O)(Nc1ccccc1F)Oc1ccccc1` (centres undefined), the activation is inactive: -1.18%.

For `CC(C)c1ccc(OP(C)(=O)Nc2ccc(SC(F)(F)F)cc2)cc1` (centres undefined), the activation was inactive: -2.67%.

For `CP(=O)(Nc1ccccc1)Oc1ccc(F)cc1` (centres undefined), the activation was inactive: -1.98%.

For `CCCCCOc1ccc(NP(C)(=O)Oc2ccc(Cl)cc2Cl)cc1` (centres undefined), the activation was inactive: -4.27%.

Regarding `O=[N+]([O-])c1cc([N+](=O)[O-])c(OC2CCCCC2O)c([N+](=O)[O-])c1` (centres undefined), the activation was inactive: -4.87%.

In the case of `CCN(CC)CCCOC(=O)C(O)(c1ccccc1)C1CCCCC1` (centres undefined), the activation was inactive: 0.43%.

For `CCOC(=O)c1ccc(NP(C)(=O)Oc2ccc(F)cc2)cc1` (centres undefined), the activation is inactive: -2.35%.

Turning to `COc1ccc(OP(C)(=O)Nc2ccc(SC(F)(F)F)cc2)cc1` (centres undefined), the activation was inactive: 3.58%.

Turning to `CC1=NCCc2c1[nH]c1ccccc21.O=[N+]([O-])c1cc([N+](=O)[O-])c(O)c([N+](=O)[O-])c1`, the activation is inactive: -1.48%.

On to `O=C(O)c1cccc(Nc2c([N+](=O)[O-])cc([N+](=O)[O-])cc2[N+](=O)[O-])c1`, for which the activation is inactive: -2.55%.

Take `Cc1ccc(C)c(NP(C)(=O)Oc2ccccc2)c1` (centres undefined): the activation was inactive: -3.24%.

Consider `CP(=O)(Nc1cccc(Br)c1)Oc1ccccc1` (centres undefined), for which the activation was inactive: -4.63%.

Consider `Cc1cc(C)cc(OP(C)(=O)Nc2ccccn2)c1` (centres undefined), for which the activation is inactive: -5.86%.

As for `CCOC(=O)c1ccc(NP(C)(=O)Oc2cc(C)cc(C)c2)cc1` (centres undefined), the activation was inactive: -2.73%.

As to `Cc1cc(C)cc(OP(C)(=O)Nc2ccc(C)cc2C)c1` (centres undefined), the activation is inactive: -3.52%.

With `COc1ccccc1OP(C)(=O)Nc1cccc(Br)c1` (centres undefined), the activation was inactive: -0.5%.

Consider `Cc1nc2ccc3ccccc3c2s1.O=[N+]([O-])c1cc([N+](=O)[O-])c(O)c([N+](=O)[O-])c1`, for which the activation was inactive: 1.42%.

Regarding `O=[N+]([O-])c1cc([N+](=O)[O-])c(-c2cnn(-c3ccccc3)c2)c([N+](=O)[O-])c1`, the activation was inactive: 11.4%.

As for `O=[N+]([O-])c1cc([N+](=O)[O-])c(-n2nnc3ccccc32)c([N+](=O)[O-])c1`, the activation was inactive: -1.01%.

For the molecule `CP(=O)(Nc1ccc(SC(F)(F)F)cc1)Oc1ccccc1` (centres undefined), the activation is inactive: -0.3%.

As for `CCCOc1ccc(NP(C)(=O)Oc2ccc(Cl)cc2)cc1` (centres undefined), the activation was inactive: -3.48%.
